The numbers were not newly measured in publication PMC3088502 (Bioorganic & medicinal chemistry, 2011), which cites them from elsewhere.

The data set deals with pancreatic cancer cells xenograft. Conditions: immunocompromised mice; ref [26],[27]; cited from earlier work.

For `CCCCCCCCCCCCc1ccc(S(=O)(=O)Nc2nncs2)cc1` [Compound 29, 4-Dodecyl-N-(1,3,4-thiadiazol-2-yl)benzenesulfonamide], the Antitumor activity entry was “good antitumor activity”.
